{
  "source": "ChEMBL document CHEMBL1132449",
  "about": "“Pyrroloquinoxaline derivatives as high-affinity and selective 5-HT(3) receptor agonists: synthesis, further structure-activity relationships, and biological studies” (J Med Chem, 1999)",
  "molecular_target": "T1, 5-hydroxytryptamine receptor 2C (Rattus norvegicus, UniProt P08909)",
  "T1 sequence (P08909 whole entry)": "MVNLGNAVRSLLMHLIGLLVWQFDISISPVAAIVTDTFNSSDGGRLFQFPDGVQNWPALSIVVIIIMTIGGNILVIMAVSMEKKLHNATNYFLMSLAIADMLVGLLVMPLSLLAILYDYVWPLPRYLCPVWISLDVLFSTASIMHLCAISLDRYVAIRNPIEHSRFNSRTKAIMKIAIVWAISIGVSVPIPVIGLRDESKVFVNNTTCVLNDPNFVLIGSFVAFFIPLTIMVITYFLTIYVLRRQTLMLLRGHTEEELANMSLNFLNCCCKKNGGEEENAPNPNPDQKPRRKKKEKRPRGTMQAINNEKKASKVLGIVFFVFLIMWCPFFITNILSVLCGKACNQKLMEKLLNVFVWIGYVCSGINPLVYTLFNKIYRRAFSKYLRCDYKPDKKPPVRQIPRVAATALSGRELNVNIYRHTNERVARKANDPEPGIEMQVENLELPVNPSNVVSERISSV",
  "assay": "The compound was tested for the binding affinity against 5-hydroxytryptamine 2C receptor using [3H]Mesulergine as radioligand.",
  "data": [
    {"compound": "CN1C[C@@H](NS(=O)(=O)N(C)C)C[C@@H]2c3cccc4c3c(cn4C)C[C@H]21", "note": "[MESULERGINE]", "values": [
      {"measurement": "Ki", "value": 1.58, "unit": "nM"}
    ]}
  ]
}
